Protein sequences, listed by entry. Tags and fused reporters are not part of them.
UniProt P33535, whole entry: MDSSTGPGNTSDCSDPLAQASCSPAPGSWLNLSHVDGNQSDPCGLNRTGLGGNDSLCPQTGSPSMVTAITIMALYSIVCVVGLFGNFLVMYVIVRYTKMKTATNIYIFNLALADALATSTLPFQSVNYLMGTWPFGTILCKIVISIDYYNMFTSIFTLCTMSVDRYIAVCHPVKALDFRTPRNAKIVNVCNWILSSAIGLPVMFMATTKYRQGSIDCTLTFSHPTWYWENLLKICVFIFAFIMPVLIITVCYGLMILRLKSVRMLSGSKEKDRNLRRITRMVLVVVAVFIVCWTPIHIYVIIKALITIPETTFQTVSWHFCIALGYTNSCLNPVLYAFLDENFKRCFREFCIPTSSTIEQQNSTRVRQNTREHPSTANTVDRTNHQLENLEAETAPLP

According to publication PMC6148296 (Scientific Reports, 2018):

Experiments:
rat μ-opioid receptor [1] = biological target: T1, rat μ-opioid receptor (Rattus norvegicus, UniProt P33535); test: Receptor binding assay, [3H]DAMGO competition; details: CHO cell membranes, 2.0 nM [3H]DAMGO; read-out: µ binding affinity Ki
T1 construct: expressed in transfected cells; membranes prepared

rat μ-opioid receptor [2] = biological target: T1, rat μ-opioid receptor; test: [35S]GTPγS binding assay, MOR; type: biochemical; details: 0.1 nM [35S]GTPγS; read-out: Agonist activity MOR EC50

Q: Which Ki (rat μ-opioid receptor [1]) does the source give for `C[C@@H](NC(=O)[C@@H](N)Cc1ccc(O)cc1)C(=O)NCC(=O)N(C)[C@@H](Cc1ccccc1)C(=O)NCCO` [DAMGO, [D-Ala2,N-Me-Phe4,Gly5-ol]-enkephalin] here?
A: 2.3 ± 0.02 nM

Q: And the EC50 (rat μ-opioid receptor [2])?
A: 16.1 ± 0.3 nM
